Assays:
[1] = tested on: rabbit heart and vasculature; test: Anesthetized rabbit pressure-volume hemodynamics with or without esmolol or MRS-1754; assay type: in vivo; details: 0.1 mg/kg i.v. bolus alone
Description: Cyclic AMP is generated largely by transmembrane adenylyl cyclases activated via stimulatory G protein (Gs), with β-adrenergic, adenosine (primarily A2B), glucagon, prostanoids, histamine, and serotonin all coupling to Gs in cardiomyocytes. The present studies focus on beta-adrenergic and adenosine receptors, and for the latter, concentrated on the A2B receptor, which has been reported to directly stimulate cAMP-dependent contractility. Anesthetized rabbits are administered a bolus intravenous Compound 1 at 0.1 mg/kg (dose based on dog results) with or without prior treatment with the selective β1-blocker esmolol or the adenosine A2BR blocker MRS-1754. […] Relaxation changes are also modest with LV preload (end-diastolic and volume) unaltered; however, the combined vasodilator-inotropic response doubled ventricular/arterial coupling ratio, Ees/Ea.
New Zealand White rabbits (male, 2-3 kg) are sedated with 35 mg/kg ketamine and 5 mg/kg xylazine, intubated and ventilated (Model 683, Harvard Apparatus, Holliston, Mass.), with anesthesia maintained with isoflurane inhalation (1-2%). […] The parallel conductance is determined by the hypertonic saline injection method. […]

Chains of the proteins cited; added tags and fusions are not shown. Lines headed by an entry give the natural chain unless they say otherwise; changes in a name come on top.
UniProt Q01064: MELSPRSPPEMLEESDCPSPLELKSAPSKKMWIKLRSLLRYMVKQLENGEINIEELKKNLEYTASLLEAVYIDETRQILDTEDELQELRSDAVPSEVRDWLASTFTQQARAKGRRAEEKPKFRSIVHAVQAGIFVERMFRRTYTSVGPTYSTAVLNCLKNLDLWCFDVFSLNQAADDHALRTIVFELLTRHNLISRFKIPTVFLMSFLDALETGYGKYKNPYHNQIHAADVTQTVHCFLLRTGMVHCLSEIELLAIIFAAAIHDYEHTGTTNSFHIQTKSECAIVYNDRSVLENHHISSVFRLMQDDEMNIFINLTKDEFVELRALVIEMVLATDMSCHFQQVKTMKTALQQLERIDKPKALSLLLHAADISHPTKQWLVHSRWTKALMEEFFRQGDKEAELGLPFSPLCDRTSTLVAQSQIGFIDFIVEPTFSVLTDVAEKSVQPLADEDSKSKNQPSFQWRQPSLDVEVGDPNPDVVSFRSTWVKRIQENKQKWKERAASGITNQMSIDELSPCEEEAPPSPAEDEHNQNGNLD
UniProt Q08499, whole entry, species assumed: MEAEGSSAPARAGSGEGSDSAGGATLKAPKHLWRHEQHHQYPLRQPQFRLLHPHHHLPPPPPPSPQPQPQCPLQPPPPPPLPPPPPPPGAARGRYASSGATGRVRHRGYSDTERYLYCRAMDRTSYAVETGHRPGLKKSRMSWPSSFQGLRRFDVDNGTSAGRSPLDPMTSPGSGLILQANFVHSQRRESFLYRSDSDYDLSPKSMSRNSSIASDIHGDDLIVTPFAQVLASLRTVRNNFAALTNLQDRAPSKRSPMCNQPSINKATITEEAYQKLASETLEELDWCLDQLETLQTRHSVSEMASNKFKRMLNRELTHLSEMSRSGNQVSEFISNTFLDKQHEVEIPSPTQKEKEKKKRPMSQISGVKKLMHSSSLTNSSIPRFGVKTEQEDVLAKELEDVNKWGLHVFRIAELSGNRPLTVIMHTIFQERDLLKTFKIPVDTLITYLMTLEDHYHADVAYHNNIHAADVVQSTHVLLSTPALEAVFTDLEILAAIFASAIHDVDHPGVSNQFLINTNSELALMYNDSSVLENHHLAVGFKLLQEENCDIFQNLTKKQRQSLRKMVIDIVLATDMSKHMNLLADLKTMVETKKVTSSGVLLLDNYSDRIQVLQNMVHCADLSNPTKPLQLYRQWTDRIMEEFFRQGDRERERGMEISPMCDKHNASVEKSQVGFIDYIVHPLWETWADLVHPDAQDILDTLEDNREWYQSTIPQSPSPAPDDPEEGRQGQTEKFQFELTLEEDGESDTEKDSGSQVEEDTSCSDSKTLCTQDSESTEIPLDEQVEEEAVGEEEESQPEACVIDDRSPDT

myocyte cAMP = test: Whole cell cAMP in isolated rabbit myocytes; assay type: cell-based; details: Compound 1 added to Fsk
Description: Lastly, the effect of Iso, Cil, Compound 1, and their combination on myocyte cAMP was tested. […] This is consistent with prior studies showing locally generated cAMP from β-AR and its modulation by PDE3 occur in local subcellular domains that are not easily detected in whole cell lysates32.

adult rabbit myocytes = test: Contraction and calcium transients in isolated rabbit cardiomyocytes; assay type: cell-based; details: FSK+Compound 1 versus FSK+IBMX
Description: To test whether PDE1 inhibition directly impacts cardiomyocyte contraction and calcium transients, studies are carried out on normal adult rabbit myocytes. […] By contrast, Compound 1 has no effect even at 1 mM. […] As PDE1 requires sufficient cAMP and Ca^2+ to be impactful, a dose response was performed to the adenylate cyclase activator, forskolin (FSK) to determine the lowest dose producing a modest but significant inotropic effect (1 μM).
Time-controls tests are performed comparing Compound 1+FSK with FSK incubation for the identical duration. […] Comparing FSK alone, FSK+Compound 1, and FSK+IBMX, the relative rise in sarcomere shortening percentage with selective PDE1 inhibition is 31% of the rise with IBMX. For calcium relaxation, however, Compound 1 shortens the time constant by 67% of the maximal achieved with IBMX.
Rabbit myocytes were isolated to determine the effect of PDE1 inhibition on cardiomyocyte contraction and whole cell Ca2+ transients, and to compare the results to those with a PDE3 inhibitor, cilostamide (Cil, 1 μM).
To compare the influence of PDE1 and PDE3 in modulating β-AR signaling, cells were first exposed to a non-saturating dose of isoproterenol (Iso), then Iso combined with either Cil or Compound 1.
An alternative approach to augmenting cAMP independent of […] is to directly stimulate adenylate cyclase using forskolin (Fsk). […]

[2] = tested on: normal and failing canine hearts; test: Conscious dog pressure-volume hemodynamic analysis, normal and failing hearts; assay type: in vivo; details: normal dogs, 10 mg/kg oral
Description: Dogs are studied in the conscious state before and after inducing dilated cardiomyopathy by tachypacing for two weeks at 200 bpm. These dogs are studied on separate days to determine the effects of oral and intravenous Compound 1, and its interaction with 1-adrenergic stimulation.
Oral drug administration: Compound 1 (0.1-10 mg/kg) is administered in gelatin capsules in peanut butter, and hemodynamic data recorded over the ensuing hour. In a subset of animals, dogs are first subjected to dobutamine infusion for 15 minutes (10 g/kg/min), a new baseline was established, and then oral dosages of Compound 1 are administered, with dobutamine subsequently added as a combination treatment 90 min after administration of Compound 1.
Intravenous drug administration: Compound 1 is dissolved in 0.05 M citrate-phosphate buffer, and administered as a bolus over the course of 1-2 minutes via a central venous catheter. […]
To assess the effect of acute PDE1 inhibition, studies were conducted of the pressure-volume relationships in intact dogs with either healthy or failing hearts, and analyzed hemodynamic and cardiac mechanics at baseline and two hours after oral administration of Compound 1 (10 mg/kg). […] Load insensitive indexes of contractility (dP/dtmax/IP and PRSW) increased. […]

r-hPDE1B = r-hPDE1B (Homo sapiens, UniProt Q01064); test: biochemical
Source text: (§1) Additional pharmaceuticals used in the following examples are dobutamine (Hospira Inc., Lake Forest, Ill.), esmolol HCl (Mylan, Rockford, Ill.), MRS1754 (Tocris Bioscience, Bristol, UK), and Hespan (6% Hetastarch in 0.9% NaCl B. Braun Medical Inc., Bethlehem, Pa.).

PDE4D = PDE4D (Homo sapiens, UniProt Q08499); test: biochemical
Source text: as §1

[3] = tested on: all other PDE enzyme families
Source text: as §1

`CN1C(=O)c2c(nn(Cc3ccc(-c4cccc(F)n4)cc3)c2Nc2ccccc2)N2C1=N[C@@H]1CCC[C@@H]12` [Compound 1, (6aR,9aS)-2-(4-(6-fluoropyridin-2-yl)benzyl)-5-methyl-3-(phenyl-amino)-5,6a,7,8,9,9a-hexahydrocyclopenta-[4,5]imidazo[1,2-a]pyrazolo[4,3-e]pyrimidin-4-(2H)-one monophosphate] was tested, and the “ventricular/arterial coupling ratio, Ees/Ea” value [1] was “doubled”, the “cAMP change relative to the maximal change with IBMX added to Fsk” value (myocyte cAMP) was “about half the maximal change” and the “relative rise in sarcomere shortening percentage, as share of the rise with IBMX” value (adult rabbit myocytes) was 31%. For the same molecule, the “load insensitive indexes of contractility (dP/dtmax/IP and PRSW)” value [2] was “increased”, the Ki (r-hPDE1B) was 0.38 nM and the Ki (PDE4D) was 33 nM. For the same molecule, the “selectivity compared with all other PDE enzyme families” value [3] was 10^4-3×10^5 fold.
